# Source: paper PMC11900932 (International Journal of Molecular Sciences, 2025)
# Structures can show the parent of a compound that is named as a salt.
# Key:
# Test in all cases: biochemical
# SARS-CoV-2 3CL^pro [1] = target: T1, SARS-CoV-2 3CL^pro (Severe acute respiratory syndrome coronavirus 2, UniProt P0DTD1)
# SARS-CoV-2 3CL^pro [2] = target: T1, SARS-CoV-2 3CL^pro; remark: listed apart in the source
# SARS-CoV-2 3CL^pro [3] = target: T1, SARS-CoV-2 3CL^pro; remark: listed apart in the source
compound,measurement,setting,value
NC(CO)C(=O)NNCc1ccc(O)c(O)c1O (stereo not drawn) [Benserazide hydrochloride],IC50,SARS-CoV-2 3CL^pro [1],0.37 ± 0.02 µM
same,inhibition at 5 µM,SARS-CoV-2 3CL^pro [1]; read-out: inhibition of SARS-CoV-2 3CLpro activity,> 50%
same,kon,"SARS-CoV-2 3CL^pro [2]; pH 7.4, read-out: binding rate constant ka",352 M⁻¹ s⁻¹
same,koff,SARS-CoV-2 3CL^pro [2]; read-out: dissociation rate constant kd,0.0162 s⁻¹
same,Ki,SARS-CoV-2 3CL^pro [3],2.24 µM
same,kinact,SARS-CoV-2 3CL^pro [3],0.08 s⁻¹
